The results in this text go back to US9023354B2, “Combination therapy with MDM2 and EFGR inhibitors” (priority 2010, dated 2015).

This experiment relates to A549 cells. As to the kind of experiment: DNA fragmentation (Cell Death Detection ELISA), measurement of apoptosis. The settings on record: Homo sapiens; for activation at 1 µM: A549, read-out: % Inc. Relative to Staurosporin (500 nM), DNA fragmentation.

Turning to `Cc1cc(Cl)cnc1NC(c1cccc(Cl)c1Cl)c1ccc2cccnc2c1O` (stereo not drawn) [AD4-13147], the activation at 1 µM turned out to be 48%.
Consider `Cc1nc(NC(c2ccc(Cl)cc2)c2ccc3cccnc3c2O)ccc1Cl` (stereo not drawn) [AD4-13161], for which the activation at 10 µM (A549, read-out: % Inc. over Background, DNA fragmentation) stood at 688%.
On to `Oc1c(C(Nc2cc(Cl)c(Cl)cn2)c2ccc(Cl)cc2Cl)ccc2cccnc12` (stereo not drawn) [AD4-13178], for which the activation at 1 µM was 47%.
